Data published in PMC6730478, “Discovery of N-(2-Aminophenyl)-4-(bis(2-chloroethyl)amino)Benzamide as a Potent Histone Deacetylase Inhibitor” (Frontiers in Pharmacology, 2019).

System: HepG2 cells
Test: Cell cycle assay (PI staining, flow cytometry)
Type: cell-based
Conditions: 6 h, control 21.24%
Protocol: Cells were then washed twice with cold phosphate-buffered saline (PBS) and fixed in 70% precooled ethanol at 4°C for 12 h. After the fixation, cells were washed again with PBS and stained with PI/RNase A for 30 min at room temperature and eventually subjected to flow cytometry (CytoFLEX, Beckman Coulter) for cell cycle distribution determination.

O=C(CCCCCCC(=O)Nc1ccccc1)NO [SAHA, Suberoylanilide hydroxamic acid, reference compound]
HepG2 cells at the G2/M phase (1 µM): 23.98% | HepG2 cells at the G2/M phase (3 µM): 25.89% | HepG2 cells at the G2/M phase (9 µM): 27.02%
